Laboratory results: article PMC6882465, “Towards discovery of new leishmanicidal scaffolds able to inhibit Leishmania GSK-3” (Journal of Enzyme Inhibition and Medicinal Chemistry, 2019)
pEC50, pIC50: −log10 of the molar value. Read-outs that look alike come from different tables or passages of the source.

By UniProt entry, the sequences of proteins in these tests, tags left out.
UniProt P49841, whole entry: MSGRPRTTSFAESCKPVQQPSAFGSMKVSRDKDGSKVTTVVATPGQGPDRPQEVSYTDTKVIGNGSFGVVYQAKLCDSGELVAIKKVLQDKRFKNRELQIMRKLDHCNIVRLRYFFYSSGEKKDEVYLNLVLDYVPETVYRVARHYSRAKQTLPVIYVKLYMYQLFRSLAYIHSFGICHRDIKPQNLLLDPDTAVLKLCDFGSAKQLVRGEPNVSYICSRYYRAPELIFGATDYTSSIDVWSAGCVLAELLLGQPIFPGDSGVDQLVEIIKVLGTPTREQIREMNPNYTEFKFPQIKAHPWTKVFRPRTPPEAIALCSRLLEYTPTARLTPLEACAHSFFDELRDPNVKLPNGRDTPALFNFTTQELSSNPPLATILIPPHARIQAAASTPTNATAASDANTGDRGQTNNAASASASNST

Tests used:
[1] = tested on: peritoneal murine macrophages (PMM); assay: Cytotoxicity on peritoneal murine macrophages (MTT); type: cell-based, Balb/c mice; conditions: read-out: PMM EC50; Table 1; 48 h
hGSK-3β = hGSK-3β (Homo sapiens, UniProt P49841); conditions: read-out: hGSK-3β IC50, cited from earlier work

SMILES | pEC50 [1] | pIC50 (hGSK-3β; Table 1) | other results
O=C(CCl)c1scc(Br)c1Br | 5.20 | 6.30 | 
OCCN=c1nc(-c2ccccc2)n(-c2ccccc2)s1 |  |  | pIC50 (hGSK-3β; Table 1, tested form: HBr): 5.70
Cn1cc(C2=C(C(=O)CBr)C(=O)NC2=O)c2ccccc21 | < 4.60 | 8.30 | 
O=C(CBr)c1scc(Br)c1Br |  |  | pIC50 (hGSK-3β; Table S1, ref 5 (supplement)): 6.00
CCCCCCCCCCCC(=O)NNC(=O)c1c(O)c2ccccc2n(CC)c1=O | 5.00 |  | 
Cn1sc(=O)n(Cc2ccccc2)c1=O | 4.48 |  | 
